Read-outs that look alike come from different tables or passages of the source.

Inhibition data for five compounds are collected here from patent publication US20150183737A1 (published 2015).

The experiment concerns the target T1, purified murine COX-2 (Mus musculus, UniProt Q05769).
T1 sequence (Q05769 18-604): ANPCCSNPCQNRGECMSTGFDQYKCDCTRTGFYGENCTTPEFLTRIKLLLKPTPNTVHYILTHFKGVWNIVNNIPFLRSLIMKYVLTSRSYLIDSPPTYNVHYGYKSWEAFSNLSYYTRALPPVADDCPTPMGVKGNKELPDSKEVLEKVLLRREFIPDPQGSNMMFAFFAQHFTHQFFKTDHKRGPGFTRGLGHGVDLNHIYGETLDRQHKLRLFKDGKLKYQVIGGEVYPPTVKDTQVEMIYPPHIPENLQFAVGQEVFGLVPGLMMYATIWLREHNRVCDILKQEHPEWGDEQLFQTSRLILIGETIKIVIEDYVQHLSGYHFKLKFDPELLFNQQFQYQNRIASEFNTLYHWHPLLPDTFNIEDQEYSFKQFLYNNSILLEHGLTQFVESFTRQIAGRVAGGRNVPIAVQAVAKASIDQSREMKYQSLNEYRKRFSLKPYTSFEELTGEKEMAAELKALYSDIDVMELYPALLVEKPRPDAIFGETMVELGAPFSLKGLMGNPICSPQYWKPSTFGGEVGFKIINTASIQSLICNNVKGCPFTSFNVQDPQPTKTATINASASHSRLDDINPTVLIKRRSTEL
In words: Inhibition of mCOX-2-dependent oxygenation of 2-AG and AA by lumiracoxib and derivatives in vitro. Set-up: dose or concentration left out as unconfirmed. It counts as biochemical.

Setting [1] is: read-out: Maximum inhibition of AA oxygenation.

What is called inhibition is the share of the control response that was lost under treatment. `Cc1ccc(Nc2c(F)cccc2Cl)c(CC(=O)O)c1`: the inhibition under setting [1] was 25%.
On to `O=C(O)Cc1ccccc1Nc1c(F)cccc1Cl` [Compound 109], for which, under setting [1], the inhibition worked out at 15%.
The same measure, in the same setting: next, `O=C(O)Cc1ccccc1Nc1ccccc1Cl` [Compound 110]: 0%.
On to `O=C(O)Cc1ccccc1Nc1ccccc1` [Compound 112], for which the inhibition is, setting by setting: (read-out: Maximum inhibition of 2-AG oxygenation) 8%; under setting [1], 15%.
With `O=C(O)Cc1ccccc1Nc1c(F)cccc1F` [Compound 114], the inhibition under setting [1] was 10%.
